Measured values reported in patent US10314857B2, “Compositions and methods for treating carbon monoxide and/or cyanide poisoning” (dated 2019).

How the values were obtained:
[1] = tested on: whole human blood containing 50% COHgb; test: CO2 production (gas-out) after injection into CO-poisoned human blood in closed-loop oxygenator circuit; conditions: for increase in the gas-out concentration of CO2 versus controls: B12r versus controls (NSdeox, AA, B12a)
[2] = frozen solution at −20° C.; cited from earlier work
[3] = tested on: Long-Evans rats exposed to CO; test: Spatial learning, Morris Water Maze path efficiency after CO exposure
[4] = tested on: brain tissue of Long-Evans rats exposed to CO; test: Immunohistochemistry of brain tissue (IBA-1, GFAP) after CO exposure
[5] = tested on: carboxyhemoglobin (COHgb); test: COHgb half-life in blood by Resonance Raman spectroscopy; conditions: O2 + B12r versus O2 alone, p<0.001
[6] = tested on: 13C labeled CO in human blood (COHgb); test: 13C labeled CO tracing: change in 13CO2/12CO2 ratio after antidote infusion; conditions: 20 min post-infusion, 300 mg OHCbl:300 mg ascorbic acid in 5 mL
[7] = tested on: Sprague-Dawley rats exposed to 2500 ppm CO; test: Brain oxygenation (PbtO2) in rats exposed to CO or medical air
[8] = tested on: rats; test: Survival of animals after receiving B12r solution
[9] = UV-Vis spectra of reduced hydroxocobalamin solution after exposure to air; conditions: solution left under room air, spectrum after 30 minutes
[10] = serial injections, ascorbic acid given 30 min after OHCbl into the same blood

O=C1O[C@H]([C@@H](O)CO)C(O)=C1O
fold increase in the gas-out concentration of CO2 [1, 10]: 3 fold
median increase of gas-out CO2 over baseline [1, 10]: 1100 ppm

diaquo-cobinamide
storage stability [2]: at least two months

hydroxocobalamin
change in the gas-out concentration of CO2 ([1]; serial injections at 30-minute intervals into COHgb blood: NS, then OHCbl, then ascorbic acid): < 500 ppm
CO2 production (FIG. 1) ([1]; whole human blood containing 50% COHgb, over 30 min): Little or no CO2 was produced

reduced hydroxocobalamin
change in path efficiency over testing days ([3]; 2 mL/kg IP, tested days 1, 3, 6, 8, no statistical differences between treatments (p>0.2)): no change
cognitive ability / path efficiency (FIG. 12) ([3]; hidden submerged platform): significantly improved the cognitive ability
myelinated axons in cortical layers ([4]; CO-exposed rats, immediate single dose): partial preservation of myelinated axons
CO-induced damage (cell count, demyelination, microglial activity) ([4]; post-injury day 10, preliminary immunochemistry data): appeared to partially reverse CO-induced damage
increase in the gas-out concentration of CO2 versus controls [1]: five- to eight-fold increase
increase in the gas-out concentration of CO2 versus controls ([1]; listed as hydroxocobalamin with ascorbic acid): 5 to 8 fold
increase in the gas-out concentration of CO2 versus controls ([1]; listed as reduced form of hydroxocobalamin): 5 to 8 fold
Median CO2 concentration (gas-out) ([1]; human blood, 50% COHgb, 5 mL injection, 30 min post-infusion, from normalized AUC): 1170 ppm
fold increase in the gas-out concentration of CO2 ([1]; pre-mixed solution injected into blood containing 45-55% COHgb): 3-4 fold
difference in COHgb half-life versus O2 alone [5]: 15 min
increase in the 13CO2/12CO2 ratio over baseline [6]: 16.7%
maximum PbtO2 ([7]; CO-exposed rats, 60 min post-infusion monitoring, did not differ from NS (p=0.61)): 33 mmHg
time to achieve PbtO2 of 25 mmHg (τ25) ([7]; CO-exposed rats, single 100 mg/kg IP dose after 30 min 2500 ppm CO): 12 (95% CI 10, 13) min
change in PbtO2 upon administration ([7]; sham-exposure (medical air) rats, PbtO2 averaged 31 mmHg): no change
deaths after receiving the solution [8]: none of our animals died
stability to air (re-oxidation) [9]: re-oxidation occurs quickly
